Data taken from patent publication US7033773B1, “Screening assays for G protein coupled receptor agonists and antagonists” (The General Hospital Corporation, priority 1997, dated 2006).

How the values were obtained:
[1] = molecular target: T1, human PTH/PTHrP receptor (Homo sapiens, UniProt Q03431); assay: Cellular cAMP accumulation in LLC-PK1 cells expressing human PTHR; type: cell-based; design: transfected with a full-length human PTH/PTHrP receptor cDNA; expressed in transfected cells; settings: 1000 nM, 15 min, mean±SD
T1 sequence (Q03431 27-593): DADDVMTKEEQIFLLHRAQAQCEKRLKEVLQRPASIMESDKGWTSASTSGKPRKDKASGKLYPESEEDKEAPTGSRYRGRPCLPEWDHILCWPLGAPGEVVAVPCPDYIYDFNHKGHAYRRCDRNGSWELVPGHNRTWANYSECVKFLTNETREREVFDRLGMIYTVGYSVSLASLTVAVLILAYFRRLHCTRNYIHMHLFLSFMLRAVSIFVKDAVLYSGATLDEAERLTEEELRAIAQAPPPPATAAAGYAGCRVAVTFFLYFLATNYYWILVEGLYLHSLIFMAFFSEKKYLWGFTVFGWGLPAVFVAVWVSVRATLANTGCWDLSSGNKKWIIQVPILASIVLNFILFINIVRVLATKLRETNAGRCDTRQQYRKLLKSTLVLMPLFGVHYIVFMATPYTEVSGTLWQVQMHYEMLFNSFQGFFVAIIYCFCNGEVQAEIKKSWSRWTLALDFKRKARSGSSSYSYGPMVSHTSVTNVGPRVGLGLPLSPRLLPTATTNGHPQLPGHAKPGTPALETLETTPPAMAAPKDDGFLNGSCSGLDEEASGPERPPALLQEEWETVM
Description: Cells were seeded into 24-well plates at a density of 2.5×10^5 cells/well and cultured for a further 2 days before study. The cells were rinsed once with 0.5 ml of ice-cold Buffer B [10 mM HEPES (pH 7.4), 130 mM NaCl, 5 mM KCl, 1.2 mM CaCl2, 1 mM MgCl2, 1.2 mM Na2HPO^4 5 mM glucose, and 0.1% heat-inactivated BSA] supplemented with 1 mM isobtylmethylxanthine (IBMX), and placed on ice. Treatments were added to each well in 0.25 ml of IBMX-supplemented Buffer B, after which the plates were incubated at 37° C. for 15 min. The buffer then was rapidly aspirated, the plates were rapidly transferred onto liquid nitrogen, and the frozen monolayers were subsequently thawed directly into 0.5 ml of 50 mM HCl. The extracted cAMP then was measured using a commercial RIA kit (Dupont-New England Nuclear, Boston, Mass.). Results were expressed as fold-basal, where basal levels ranged between 38 and 128 pmol/mg protein/15 min. The basal level of cAMP accumulation in native LLC-PK1 cells was not consistently altered in subclones that expressed wild type PTH/PTHrp receptors.
Maximal PTH-dependent cAMP accumulation was assessed in the human PTHR-transfected LLC-PK1 subclones following incubation for 15 min with a high concentration (1000 nM) of hPTH(1-34) (Table 1). As reported previously for LLC-PK1 cells that stably expressed rat PTHRs (Guo, J., et al., Endocrinology 136:3884-3891 (1995)), the maximal adenylyl cyclase response was relatively independent of the surface density of human PTHRs above a relatively low threshold (relative to that required for PLC activation—see below). In the case of the human PTHR, however, this threshold for saturation of maximal AC activation appeared to lie between 120,000 and 280,000 (Table 1), which is at least 6 to 10-fold higher than that previously observed for the rat PTHR (Guo, J., et al., Endocrinology 136:3884-3891 (1995)).

[2] = molecular target: T1, human PTH/PTHrP receptor; assay: Cellular phosphate uptake in LLC-PK1 cells expressing human PTHR; type: cell-based; design: transfected with a full-length human PTH/PTHrP receptor cDNA; expressed in transfected cells
Description: FIG. 8. Regulation of phosphate uptake by PTH in HKRK B7 and HKRK B28 cells. […] Results are expressed as percentage of basal, and each bar represents the mean±SEM of a representative experiment performed in triplicate. Similar results were obtained from at least 5 individual experiments. Cells were seeded into 24-well plates at a density of 2.5×10^5 cells/well and cultured for a further 2 days before study. Twenty four hours before assay, cells were refed with 0.5 ml of DMEM containing 0.1% BSA. The next day, cells were refed with serum-free medium (DMEM+0.1% BSA) containing drugs or peptides, and the incubations were continued at 37° C. under 5% CO2 in air for another 6 hr. Cells then were washed with prewarmed Buffer B without BSA and Na2HPO4 and then were incubated at 37° C. for 5 min in 0.25 ml of the same buffer containing [^32P]orthophosphate (4 uCi/ml) and 0.1 mM Na2HPO4. Phosphate uptake was arrested by adding 1 ml of ice-cold sodium-free “stop buffer” [10 mM HEPES (pH 7.4), 140 mM choline chloride, and 5 mM sodium arsenate], followed by two further washes with same buffer. The drained cell layer then was solubilized in 0.5 ml of Lysis Buffer, and cell-associated radioactivity was determined by Cerenkov counting, as previously described (Guo, J., et al., Endocrinology 136:3884-3891 (1995)).

- cAMP Accumulation (maximal response) ([1]; HKRK B7 cells): 99 ± 10 fold basal
- cAMP Accumulation (maximal response) ([1]; HKRK B28 cells): 103 ± 17 fold basal
- cAMP Accumulation (maximal response) ([1]; HKRK B64 cells): 13 ± 2 fold basal
- cAMP Accumulation (maximal response) ([1]; HKRK C27 cells): 64 ± 8 fold basal
- cAMP Accumulation (maximal response) ([1]; HKRK C53 cells): 58 ± 16 fold basal
- cAMP Accumulation (maximal response) ([1]; HKRK C101 cells): 94 ± 1 fold basal
- phosphate uptake (in words) ([2]; HKRK B7 and HKRK B28 cells): stimulated significantly
- stimulation of phosphate uptake ([2]; cAMP-resistant AB45 cells, data not shown): over 2 fold
Structure (SMILES): CC[C@H](C)[C@H](NC(=O)[C@H](CCC(=O)O)NC(=O)[C@H](CO)NC(=O)[C@@H](NC(=O)[C@@H](N)CO)C(C)C)C(=O)N[C@@H](CCC(N)=O)C(=O)N[C@@H](CC(C)C)C(=O)N[C@@H](CCSC)C(=O)N[C@@H](Cc1c[nH]cn1)C(=O)N[C@@H](CC(N)=O)C(=O)N[C@@H](CC(C)C)C(=O)NCC(=O)N[C@@H](CCCCN)C(=O)N[C@@H](Cc1c[nH]cn1)C(=O)N[C@@H](CC(C)C)C(=O)N[C@@H](CC(N)=O)C(=O)N[C@@H](CO)C(=O)N[C@@H](CCSC)C(=O)N[C@@H](CCC(=O)O)C(=O)N[C@@H](CCCNC(=N)N)C(=O)N[C@H](C(=O)N[C@@H](CCC(=O)O)C(=O)N[C@@H](Cc1c[nH]c2ccccc12)C(=O)N[C@@H](CC(C)C)C(=O)N[C@@H](CCCNC(=N)N)C(=O)N[C@@H](CCCCN)C(=O)N[C@@H](CCCCN)C(=O)N[C@@H](CC(C)C)C(=O)N[C@@H](CCC(N)=O)C(=O)N[C@@H](CC(=O)O)C(=O)N[C@H](C(=O)N[C@@H](Cc1c[nH]cn1)C(=O)N[C@@H](CC(N)=O)C(=O)N[C@@H](Cc1ccc(O)cc1)C(N)=O)C(C)C)C(C)C [hPTH(1-34), [Tyr^34]hPTH(1-34)]
- maximal activation of phosphate uptake (in words) ([2]; HKRK B28 and HKRK B7 cells, peptides 1000 nM, 6 hr): comparable maximal activation of phosphate uptake
